The test addresses human GPR40 (Homo sapiens, UniProt O14842). In words: GPR40 binding assay, AgoPAM tracer [3H]25 ([3H]AP9).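 Note: 100% bound is tracer binding in DMSO-only wells.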 Also on record: expressed in transfected cells; host or cells: CHO / CHO-K1 cells, membrane preparation. To be noted: radioligand L-005306257; dose 10.0433 nM. The method, then: Two small molecule tracers, the partial agonist [3H][…] and the AgoPAM [3H]25, are used to measure compound affinity at each site as described previously. Because of the allosteric coupling of the two sites and the nature of the assay, addition of a compound will either displace (binds to same site) or augment (binds to allosterically coupled site) radiotracer. Membranes expressing GPR40 were prepared from CHO cells stably expressing human GPR40. […] Sigma P8830) and were homogenized in 50 ml aliquots with a motor-driven glass Dounce homogenizer, 15 strokes at 1900 rpm on wet ice, repeating once. Homogenates were centrifuged at 2200 rpm for 10 min at 4°C. Supernatants were carefully removed and pooled. Homogenization and centrifugation were repeated until the debris pellet was translucent to maximize membrane recovery. Supernatants were then centrifuged at […] rpm for 20 min. at 4°C. […] Protein concentration was determined by Pierce BCA kit. […] The beads and membrane mixture is then vigorously mixed for 30 minutes at room temperature prior to addition to the assay. […] The plates are allowed to settle for 16 hours and then counted on a TopCount scintillation counter (PE). […] Maximal % bound and IC50 are then determined for each test compound. […] The plate is briefly mixed and incubated for 3-18 h at room temperature, before it is read on a MicroBeta plate counter (Perkin Elmer, MS, USA).

By UniProt entry, the sequences of proteins in these tests, tags left out.
UniProt O14842, whole entry: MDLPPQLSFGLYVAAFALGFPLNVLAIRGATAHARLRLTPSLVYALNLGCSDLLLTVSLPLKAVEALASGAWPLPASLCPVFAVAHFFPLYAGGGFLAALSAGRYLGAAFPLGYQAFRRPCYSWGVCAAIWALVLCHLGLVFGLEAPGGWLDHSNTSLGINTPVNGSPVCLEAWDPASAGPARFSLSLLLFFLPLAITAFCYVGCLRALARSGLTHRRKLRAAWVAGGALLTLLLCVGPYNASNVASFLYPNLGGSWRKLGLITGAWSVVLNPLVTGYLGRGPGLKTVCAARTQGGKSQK

In the case of `Cc1cc(OCCCS(C)(=O)=O)cc(C)c1-c1cccc(COc2ccc3c(c2)OC[C@H]3CC(=O)O)c1` [TAK-875, reference compound], the “%Bound” value came to 118.83%.

The values above are taken from article PMC5650142, “GPR40 partial agonists and AgoPAMs: Differentiating effects on glucose and hormonal secretions in the rodent” (PLoS ONE, 2017).
